# Values quoted from earlier work as cited in patent US9149532B2, “Pharmaceutical composition” (DAIICHI SANKYO COMPANY, LIMITED, priority 2007, dated 2015).
# The chains behind the UniProt entries cited, without tags or fusion partners. Residues count along the entry.
# UniProt P00742, 41-179 partner limits assumed: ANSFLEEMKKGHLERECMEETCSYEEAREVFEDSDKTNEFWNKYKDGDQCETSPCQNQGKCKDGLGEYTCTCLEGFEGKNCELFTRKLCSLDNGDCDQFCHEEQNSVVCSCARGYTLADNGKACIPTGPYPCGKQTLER
# UniProt P00742, 235-488 limits assumed: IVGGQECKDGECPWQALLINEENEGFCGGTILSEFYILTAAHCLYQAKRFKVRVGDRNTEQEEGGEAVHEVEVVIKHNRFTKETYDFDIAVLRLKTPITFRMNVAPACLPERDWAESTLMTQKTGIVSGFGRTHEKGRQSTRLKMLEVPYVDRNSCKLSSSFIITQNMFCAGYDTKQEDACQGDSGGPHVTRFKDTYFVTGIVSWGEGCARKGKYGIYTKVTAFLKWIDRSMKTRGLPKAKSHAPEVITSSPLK
# Biological target: activated blood coagulation factor X (Homo sapiens, UniProt P00742)
# Settings: known from Patent Documents 1 to 4; cited from earlier work
smiles,measurement,value
"CN1CCc2nc(C(=O)N[C@@H]3C[C@@H](C(=O)N(C)C)CC[C@@H]3NC(=O)C(=O)Nc3ccc(Cl)cn3)sc2C1 [compound (1), N^1-(5-chloropyridin-2-yl)-N^2-(4-[(dimethylamino)carbonyl]-2-{[(5-methyl-4,5,6,7-tetrahydrothiazolo[5,4-c]pyridin-2-yl)carbonyl]amino}cyclohexyl)ethanediamide]",inhibitory action on activated blood coagulation factor X,potent inhibitory action
